# Measured values from BindingDB's records for doi:10.1016/0968-0896(96)00107-1 (Hebrew University of Jerusalem, 1996).
# The chains behind the UniProt entries cited, without tags or fusion partners.
# UniProt P00533, whole entry: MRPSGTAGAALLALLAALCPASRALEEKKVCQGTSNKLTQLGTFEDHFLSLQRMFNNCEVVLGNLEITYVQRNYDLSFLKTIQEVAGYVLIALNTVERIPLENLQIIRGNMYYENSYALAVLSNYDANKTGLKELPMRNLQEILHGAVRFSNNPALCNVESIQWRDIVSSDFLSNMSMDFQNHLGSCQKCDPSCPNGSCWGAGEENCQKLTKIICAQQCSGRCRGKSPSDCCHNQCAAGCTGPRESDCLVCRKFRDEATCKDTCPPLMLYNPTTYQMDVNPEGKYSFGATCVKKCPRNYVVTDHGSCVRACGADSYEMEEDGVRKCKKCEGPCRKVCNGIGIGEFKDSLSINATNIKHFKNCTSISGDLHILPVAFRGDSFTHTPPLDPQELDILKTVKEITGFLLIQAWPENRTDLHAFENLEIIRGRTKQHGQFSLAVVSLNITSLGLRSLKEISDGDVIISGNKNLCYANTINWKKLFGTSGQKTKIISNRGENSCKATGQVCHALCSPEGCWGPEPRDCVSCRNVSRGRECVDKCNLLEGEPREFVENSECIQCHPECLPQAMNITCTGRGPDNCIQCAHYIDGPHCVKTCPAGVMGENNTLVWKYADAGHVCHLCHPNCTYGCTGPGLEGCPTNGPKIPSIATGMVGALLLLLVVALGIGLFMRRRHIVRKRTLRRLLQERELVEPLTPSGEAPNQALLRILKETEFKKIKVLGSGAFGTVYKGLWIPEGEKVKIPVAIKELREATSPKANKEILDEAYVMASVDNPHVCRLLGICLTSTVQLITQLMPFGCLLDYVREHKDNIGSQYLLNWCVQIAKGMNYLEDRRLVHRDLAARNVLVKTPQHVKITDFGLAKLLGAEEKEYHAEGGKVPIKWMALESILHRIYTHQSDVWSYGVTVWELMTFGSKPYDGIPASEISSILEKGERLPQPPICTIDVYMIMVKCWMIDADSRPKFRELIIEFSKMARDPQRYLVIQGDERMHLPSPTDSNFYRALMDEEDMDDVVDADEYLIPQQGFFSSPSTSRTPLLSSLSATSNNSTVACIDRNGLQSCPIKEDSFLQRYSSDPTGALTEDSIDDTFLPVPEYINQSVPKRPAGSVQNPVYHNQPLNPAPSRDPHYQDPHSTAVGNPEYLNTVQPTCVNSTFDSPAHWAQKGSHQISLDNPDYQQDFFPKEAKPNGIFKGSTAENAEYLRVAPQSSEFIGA
# Biological target: Epidermal growth factor receptor (Homo sapiens, UniProt P00533)
# Assay: EGFR assay
# Settings: pH 7.6; 22 °C
# Procedure: The activity of EGFR, preactivated with EGF, is measured by its ability to transfer terminal phosphate from [gamma-32P]ATP to poly(GAT) substrate.
row,SMILES,IC50 [nM]
1,COc1cc2ncnc(Nc3cccc(F)c3)c2cc1OC,90
2,COc1cc2ncnc(Nc3cccc(Cl)c3)c2cc1OC,900
